{
  "source": "ChEMBL document CHEMBL1138683",
  "about": "(J Med Chem, 2004)",
  "test_system": "Mus musculus",
  "experiment": "Anticonvulsant activity administered intra peritoneally to mouse for protective index of subcutaneous metrazol test",
  "format": "functional",
  "data": [
    {"smiles": "CCCC(CCC)C(=O)O", "note": "[VALPROIC ACID]", "values": [
      {"measurement": "Activity", "value": 1.8}
    ]}
  ]
}
